Results on 3 compounds are retold here after patent publication US8357695B2, “Hydrates of 2-chloro-5-[3,6-dihydro-3-methyl-2,6-dioxo-4-(trifluoromethyl)-1-(2H)-pyrimidinyl]-4-fluoro-N-[[methyl(1-methylethyl)amino]sulfonyl]benzamide” (BASF SE, priority 2006, dated 2013).

Like-named read-outs stand apart in the source and are kept apart here.

Data set [1] relates to test plants. The note with it: greenhouse tests, overall conclusion in words.
Data set [2] has as its system Viola arvensis. Particulars: harmful plant Viola arvensis. The text has this:
(§1) The seeds of the test plants were sown separately for each species.
(§2) The test period extended over 2 to 4 weeks.

Data set [3] has as its system Hordeum vulgare (spring barley). The note with it: useful plant Hordeum vulgare (spring barley), post-emergence + 1 l/ha Rustica Öl, 20 g/ha a.s.
Description: as §1, §2

For data set [4], the system named is Kochia scoparia. The note with it: harmful plant Kochia scoparia, post-emergence, 20 g/ha a.s.
Description: as §1, §2

Data set [5] deals with Sinapis arvensis. The note with it: harmful plant Sinapis arvensis, post-emergence, 10 g/ha a.s.
Description: as §1, §2

Data set [6] deals with Stellaria media. The note with it: harmful plant Stellaria media, pre-emergence, 12.5 g/ha a.s.
Description: as §1, §2

Data set [7] has as its system Triticum aestivum. Particulars: useful plant Triticum aestivum, 20 g/ha a.s.
Description: as §1, §2

Data set [8] has as its system Glycine max. Particulars: useful plant Glycine max, pre-emergence.
Description: as §1, §2

The subject of data set [9] is Thlaspi arvense. Particulars: harmful plant Thlaspi arvense, post-emergence, 10 g/ha a.s.
Description: as §1, §2

Data set [10] deals with Euphorbia heterophylla. Particulars: harmful plant Euphorbia heterophylla, pre-emergence.
Description: as §1, §2

Data set [11] relates to Capsella bursa-pastoris. Particulars: harmful plant Capsella bursa-pastoris, post-emergence, 15 g/ha a.s.
Description: as §1, §2

For data set [12], the system named is Helianthus annuus. Particulars: harmful plant Helianthus annuus, pre-emergence, 12.5 g/ha a.s.
Description: as §1, §2

In data set [13] the test system is Matricaria inodora. Particulars: harmful plant Matricaria inodora.
Description: as §1, §2

Data set [14] relates to Secale cereale. Particulars: useful plant Secale cereale.
Description: as §1, §2

Data set [15] deals with Polygonum convolvulus. Particulars: harmful plant Polygonum convolvulus, post-emergence + 1 l/ha Rustica Öl, 15 g/ha a.s.
Description: as §1, §2

Data set [16] relates to Mercurialis annua. The note with it: harmful plant Mercurialis annua, pre-emergence, 6.25 g/ha a.s.
Description: as §1, §2

Data set [17] deals with Amaranthus retroflexus. The note with it: harmful plant Amaranthus retroflexus, post-emergence, 10 g/ha a.s.
Description: as §1, §2

In data set [18] the test system is Ambrosia elatior. Particulars: harmful plant Ambrosia elatior, pre-emergence, 12.5 g/ha a.s.
Description: as §1, §2

For data set [19], the system named is Hordeum vulgare (winter barley). Particulars: useful plant Hordeum vulgare (winter barley).
Description: as §1, §2

Data set [20] has as its system Chenopodium album. The note with it: harmful plant Chenopodium album, post-emergence + 1 l/ha Rustica Öl, 15 g/ha a.s.
Description: as §1, §2

For data set [21], the system named is Veronica persicaria. The note with it: harmful plant Veronica persicaria, 15 g/ha a.s.
Description: as §1, §2

In data set [22] the test system is Galium aparine. Particulars: harmful plant Galium aparine, post-emergence + 1 l/ha Rustica Öl, 15 g/ha a.s.
Description: as §1, §2

Data set [23] relates to Veronica hederaefolia. Particulars: harmful plant Veronica hederaefolia, post-emergence + 1 l/ha Rustica Öl, 15 g/ha a.s.
Description: as §1, §2

The subject of data set [24] is Salsola kali ssp. ruthenica. The note with it: harmful plant Salsola kali ssp. ruthenica, post-emergence, 20 g/ha a.s.
Description: as §1, §2

For data set [25], the system named is Sonchus arvensis. Particulars: harmful plant Sonchus arvensis, post-emergence, 15 g/ha a.s.
Description: as §1, §2

Where [26] appears, read: post-emergence + 1 l/ha Rustica Öl, 5 g/ha a.s.
Where [27] appears, read: post-emergence + 1 l/ha Rustica Öl.
Where [28] appears, read: post-emergence + 1 l/ha Rustica Öl, 10 g/ha a.s.
[29] abbreviates: post-emergence + 1 l/ha Rustica Öl, 15 g/ha a.s.
[30] abbreviates: post-emergence + 1 l/ha Rustica Öl, 20 g/ha a.s.
The mark [31] stands for this setting: 12.5 g/ha a.s., listed as Modification I.

`CC(C)N(C)S(=O)(=O)NC(=O)c1cc(-n2c(=O)cc(C(F)(F)F)n(C)c2=O)c(F)cc1Cl` [Form IV, 2-chloro-5-[3,6-dihydro-3-methyl-2,6-dioxo-4-(trifluoromethyl)-1-(2H)-pyrimidinyl]-4-fluoro-N-[[methyl(1-methylethyl)amino]sulfonyl]benzamide]: the “herbicidal activity in comparison with form I” value in data set [1] was “superior to the former in terms of activity”.
As for `CC(C)N(C)S(=O)(=O)NC(=O)c1cc(-n2c(=O)cc(C(F)(F)F)n(C)c2=O)c(F)cc1Cl` (single isomer, unassigned) [Form III, 2-chloro-5-[3,6-dihydro-3-methyl-2,6-dioxo-4-(trifluoromethyl)-1-(2H)-pyrimidinyl]-4-fluoro-N-[[methyl(1-methylethyl)amino]sulfonyl]benzamide], the Damage was determined as 100% in data set [2] (setting [26]); 100% in [2] (post-emergence, 15 g/ha a.s.); 5% in [3]; 100% in [4]; 60% in data set [5]; 70% in data set [6]. Moreover, the Damage in [7] (setting [27]) amounted to 10%; in data set [7] (post-emergence), 5%; in data set [8] (12.5 g/ha a.s.), 20%; in data set [8] (25 g/ha a.s., SC 100 g/l, scale 0-100) it was 30%; in [9], 100%; in data set [10] (6.25 g/ha a.s.) it was 90%. For the same compound, the Damage was found to be 100% in [10] (12.5 g/ha a.s.); 70% in [11]; 75% in [12]; 100% in [13] (setting [26]); 100% in [13] (post-emergence, 15 g/ha a.s.); 0% in [14] (setting [28]). For the same compound, the Damage worked out at 0% in [14] (setting [29]); 5% in data set [14] (setting [30]); 5% in data set [14] (post-emergence, 20 g/ha a.s.); 100% in data set [15]; 65% in [16]; 100% in data set [17]. In addition, the Damage is 80% in data set [18]; 5% in data set [19] (setting [29]); 5% in data set [19] (setting [30]); 0% in [19] (post-emergence, 15 g/ha a.s.); 80% in [20]; 100% in [21] (setting [27]). The Damage in data set [21] (post-emergence) was 100%; in data set [22], 100%; in data set [23], 70%; in [24], 100%; in data set [25] it was 100%. Moreover, the “tolerance by the crop plant in comparison with form I” value in [1] is given as “improved tolerance by the crop plant”.
As for `CC(C)N(C)S(=O)(=O)NC(=O)c1cc(-n2c(=O)cc(C(F)(F)F)n(C)c2=O)c(F)cc1Cl` (single isomer, unassigned) [Form I, 2-chloro-5-[3,6-dihydro-3-methyl-2,6-dioxo-4-(trifluoromethyl)-1-(2H)-pyrimidinyl]-4-fluoro-N-[[methyl(1-methylethyl)amino]sulfonyl]benzamide], the Damage was found to be 40% in data set [2] (setting [26]); 40% in data set [2] (post-emergence, 15 g/ha a.s.); 15% in data set [3]; 45% in data set [4]; 50% in data set [5]; 65% in [6] (listed as Modification I). Moreover, the Damage worked out at 15% in data set [7] (setting [27]); 10% in data set [7] (post-emergence); 30% in data set [8] (setting [31]); 70% in data set [8] (25 g/ha a.s., SC 100 g/l, scale 0-100, listed as Modification I); 30% in [9]; 40% in data set [10] (6.25 g/ha a.s., listed as Modification I). Also, the Damage in data set [10] (setting [31]) amounted to 95%; in data set [11], 20%; in [12] (listed as Modification I) it was 70%; in [13] (setting [26]), 65%; in data set [13] (post-emergence, 15 g/ha a.s.) it was 65%; in data set [14] (setting [28]) it was 10%. In addition, the Damage in data set [14] (setting [29]) was 10%; in data set [14] (setting [30]), 15%; in [14] (post-emergence, 20 g/ha a.s.), 15%; in data set [15], 70%; in data set [16] (listed as Modification I) it was 40%; in data set [17] it was 40%. Further, the Damage in data set [18] (listed as Modification I) was found to be 60%; in data set [19] (setting [29]), 15%; in data set [19] (setting [30]) it was 20%; in data set [19] (post-emergence, 15 g/ha a.s.), 5%; in [20] it was 70%; in [21] (setting [27]), 70%. For the same compound, the Damage in data set [21] (post-emergence) is 40%; in [22], 75%; in data set [23], 50%; in data set [24] it was 80%; in [25] it was 60%.
